{"source": "patent US4005084A", "about": "“Thienylmethyl phenoxy morpholine compounds” (Yoshitomi Pharmaceutical Industries, Ltd., priority 1975, dated 1977)", "target": "T1, acetylcholine (contracting action of the guinea pig intestine) (Cavia porcellus)", "T1 construct": "contracting action of the guinea pig intestine; from tissue; host or cells: guinea pig intestine", "test": "Acetylcholine antagonistic activity on contraction of guinea pig intestine", "experimental": "Acetylcholine antagonistic activity was tested according to the method described by J. M. Van Rossum et al. in the Archives Internationales de Pharmacodynamie et de Therapie, vol. 143, pp. 240-246 and pp. 299-330 (1963). The pA2 is the negative of the logarithm, to the base 10, of the molar concentration of the test compound which reduced the effect of a double dose of acetylcholine on contracting action of the guinea pig intestine compared with that of a single dose."}
{"smiles": "CN1[C@@H]2CC[C@H]1C[C@@H](OC(=O)C(CO)c1ccccc1)C2", "note": "(stereo partly shown) [Atropine]", "values": [{"measurement": "Kb", "result": 1.26, "unit": "nM"}]}
